From patent US20250177353A1 (priority 2021, published 2025)

Assay: SAD phase I study: plasma pharmacokinetics of Compound 1 (Table 2)
[1] = 100 mg Fasted, single oral dose
[2] = 100 mg Fasted, single oral dose (N=1)
[3] = 200 mg Fasted, single oral dose
[4] = 200 mg Fasted, single oral dose (N=2)
[5] = 500 mg Fasted, single oral dose
[6] = 500 mg Fasted, single oral dose (N=3)
[7] = 600 mg Fasted Micronized, single oral dose

SMILES: Cn1c(COc2ccc([N+](=O)[O-])cc2[N+](=O)[O-])cnc1[N+](=O)[O-]
- AUClast, Geometric Mean (30 mg Fasted, single oral dose): 0.00446 µg·h/mL
- AUClast, Median (30 mg Fasted, single oral dose): 0.00459 µg·h/mL
- AUClast/D, Geometric Mean (30 mg Fasted, single oral dose): 0.149 ng·h/mL/mg
- AUClast/D, Mean (SD) (30 mg Fasted, single oral dose): 0.151 (0.0304) h*ng/mL/mg
- AUClast/D, Median (30 mg Fasted, single oral dose): 0.153 ng·h/mL/mg
- Cmax, Geometric Mean (30 mg Fasted, single oral dose): 1.77 ng/mL
- Cmax, Median (30 mg Fasted, single oral dose): 1.85 ng/mL
- Cmax/D, Geometric Mean (30 mg Fasted, single oral dose): 0.0589 ng/mL/mg
- Cmax/D, Mean (SD) (30 mg Fasted, single oral dose): 0.0618 (0.0219) ng/mL/mg
- Cmax/D, Median (30 mg Fasted, single oral dose): 0.0615 ng/mL/mg
- Tlag, Median (30 mg Fasted, single oral dose): 0.500 h
- Tlast, Median (30 mg Fasted, single oral dose): 4.00 h
- AUClast, Geometric Mean [1]: 0.01 µg·h/mL
- AUClast, Median [1]: 0.00971 µg·h/mL
- AUClast/D, Geometric Mean [1]: 0.100 ng·h/mL/mg
- AUClast/D, Mean (SD) [1]: 0.107 (0.0427) h*ng/mL/mg
- AUClast/D, Median [1]: 0.0971 ng·h/mL/mg
- Cmax, Geometric Mean [1]: 3.46 ng/mL
- Cmax, Median [1]: 3.96 ng/mL
- Cmax/D, Geometric Mean [1]: 0.0346 ng/mL/mg
- Cmax/D, Mean (SD) [1]: 0.0373 (0.0152) ng/mL/mg
- Cmax/D, Median [1]: 0.0396 ng/mL/mg
- Tlag, Median [1]: 0.500 h
- Tlast, Median [1]: 6.00 h
- AUC0-24 h, Median [2]: 0.0188 µg·h/mL
- AUC extrapolated, Median [2]: 4.54%
- AUCinf, Median [2]: 0.0188 µg·h/mL
- AUCinf/D, Median [2]: 0.188 ng·h/mL/mg
- CL/F, Median [2]: 5330 L/h
- t1/2, Median [2]: 1.05 h
- λz, Median [2]: 0.659 h⁻¹
- AUClast, Geometric Mean [3]: 0.0363 µg·h/mL
- AUClast, Median [3]: 0.0405 µg·h/mL
- AUClast/D, Geometric Mean [3]: 0.181 ng·h/mL/mg
- AUClast/D, Mean (SD) [3]: 0.191 (0.0642) h*ng/mL/mg
- AUClast/D, Median [3]: 0.202 ng·h/mL/mg
- Cmax, Geometric Mean [3]: 11.3 ng/mL
- Cmax, Median [3]: 11.4 ng/mL
- Cmax/D, Geometric Mean [3]: 0.0567 ng/mL/mg
- Cmax/D, Mean (SD) [3]: 0.0615 (0.0264) ng/mL/mg
- Cmax/D, Median [3]: 0.0568 ng/mL/mg
- Tlag, Median [3]: 0.500 h
- Tlast, Median [3]: 8.00 h
- AUC0-24 h, Median [4]: 0.0431 µg·h/mL
- AUC extrapolated, Median [4]: 6.14%
- AUCinf, Median [4]: 0.0431 µg·h/mL
- AUCinf/D, Median [4]: 0.215 ng·h/mL/mg
- CL/F, Median [4]: 4760 L/h
- t1/2, Median [4]: 1.49 h
- λz, Median [4]: 0.476 h⁻¹
- AUC0-24 h, Geometric Mean [5]: 53500 µg·h/mL
- AUC0-24 h, Mean (SD) [5]: 68.0 (60.4) h*mg/mL
- AUC0-24 h, Median [5]: 42500 µg·h/mL
- AUClast, Geometric Mean [5]: 0.0443 µg·h/mL
- AUClast, Median [5]: 0.0378 µg·h/mL
- AUClast/D, Geometric Mean [5]: 0.0887 ng·h/mL/mg
- AUClast/D, Mean (SD) [5]: 0.108 (0.0882) h*ng/mL/mg
- AUClast/D, Median [5]: 0.0755 ng·h/mL/mg
- Cmax, Geometric Mean [5]: 14.8 ng/mL
- Cmax, Median [5]: 14.2 ng/mL
- Cmax/D, Geometric Mean [5]: 0.0297 ng/mL/mg
- Cmax/D, Mean (SD) [5]: 0.0329 (0.0156) ng/mL/mg
- Cmax/D, Median [5]: 0.0284 ng/mL/mg
- Geometric mean AUC0-24h [5]: 0.0535 µg·h/mL
- Tlag, Median [5]: 0.250 h
- Tlast, Median [5]: 6.00 h
- Tmax, Median [5]: 3.0 h
- AUC extrapolated, Median [6]: 2.19%
- AUCinf, Median [6]: 0.0379 µg·h/mL
- AUCinf/D, Median [6]: 0.0757 ng·h/mL/mg
- CL/F, Median [6]: 13200 L/h
- t1/2, Median [6]: 0.865 h
- λz, Median [6]: 0.801 h⁻¹
- Geometric mean AUC0-24h (500 mg Fed (50% fat meal), single oral dose): 0.273 µg·h/mL
- AUC0-24 h, Geometric Mean (500 mg Fed, single oral dose): 273000 µg·h/mL
- AUC0-24 h, Mean (SD) (500 mg Fed, single oral dose): 273 (22.1) h*mg/mL
- AUC0-24 h, Median (500 mg Fed, single oral dose): 261000 µg·h/mL
- AUC extrapolated, Geometric Mean (500 mg Fed, single oral dose): 4.83%
- AUC extrapolated, Mean (SD) (500 mg Fed, single oral dose): 5.82 (4.55) %
- AUC extrapolated, Median (500 mg Fed, single oral dose): 3.41%
- AUCinf, Geometric Mean (500 mg Fed, single oral dose): 0.28 µg·h/mL
- AUCinf, Mean (SD) (500 mg Fed, single oral dose): 281 (17.6) h*ng/mL
- AUCinf, Median (500 mg Fed, single oral dose): 0.271 µg·h/mL
- AUCinf/D, Geometric Mean (500 mg Fed, single oral dose): 0.560 ng·h/mL/mg
- AUCinf/D, Mean (SD) (500 mg Fed, single oral dose): 0.561 (0.0353) h*ng/mL/mg
- AUCinf/D, Median (500 mg Fed, single oral dose): 0.541 ng·h/mL/mg
- AUClast, Geometric Mean (500 mg Fed, single oral dose): 0.183 µg·h/mL
- AUClast, Mean (SD) (500 mg Fed, single oral dose): 196 (78.0) h*ng/mL
- AUClast, Median (500 mg Fed, single oral dose): 0.198 µg·h/mL
- AUClast/D, Geometric Mean (500 mg Fed, single oral dose): 0.365 ng·h/mL/mg
- AUClast/D, Mean (SD) (500 mg Fed, single oral dose): 0.393 (0.156) h*ng/mL/mg
- AUClast/D, Median (500 mg Fed, single oral dose): 0.396 ng·h/mL/mg
- CL/F, Geometric Mean (500 mg Fed, single oral dose): 1780 L/h
- CL/F, Mean (SD) (500 mg Fed, single oral dose): 1790 (108) L/h
- CL/F, Median (500 mg Fed, single oral dose): 1850 L/h
- Cmax, Geometric Mean (500 mg Fed, single oral dose): 25.3 ng/mL
- Cmax, Mean (SD) (500 mg Fed, single oral dose): 27.7 (13.6) ng/mL
- Cmax, Median (500 mg Fed, single oral dose): 25.1 ng/mL
- Cmax/D, Geometric Mean (500 mg Fed, single oral dose): 0.0505 ng/mL/mg
- Cmax/D, Mean (SD) (500 mg Fed, single oral dose): 0.0554 (0.0273) ng/mL/mg
- Cmax/D, Median (500 mg Fed, single oral dose): 0.0502 ng/mL/mg
- Tlag, Median (500 mg Fed, single oral dose): 1.00 h
- Tlast, Median (500 mg Fed, single oral dose): 18.0 h
- Tmax, Median (500 mg Fed, single oral dose): 6.0 h
- t1/2, Geometric Mean (500 mg Fed, single oral dose): 3.42 h
- t1/2, Mean (SD) (500 mg Fed, single oral dose): 3.45 (0.537) h
- t1/2, Median (500 mg Fed, single oral dose): 3.31 h
- λz, Geometric Mean (500 mg Fed, single oral dose): 0.203 h⁻¹
- λz, Mean (SD) (500 mg Fed, single oral dose): 0.204 (0.0304) /h
- λz, Median (500 mg Fed, single oral dose): 0.210 h⁻¹
- AUC0-24 h, Geometric Mean [7]: 197000 µg·h/mL
- AUC0-24 h, Mean (SD) [7]: 215 (91.9) h*mg/mL
- AUC0-24 h, Median [7]: 221000 µg·h/mL
- AUC extrapolated, Geometric Mean [7]: 1.07%
- AUC extrapolated, Mean (SD) [7]: 1.31 (0.861) %
- AUC extrapolated, Median [7]: 0.888%
- AUCinf, Geometric Mean [7]: 0.197 µg·h/mL
